Our source for the Ki values is paper PMC6937391 (Leukemia research, 2019).

By UniProt entry, the sequences of proteins in these tests, tags left out. Where a name states a change or a piece, a line headed by the entry shows the natural chain unless it says otherwise.
UniProt P28074: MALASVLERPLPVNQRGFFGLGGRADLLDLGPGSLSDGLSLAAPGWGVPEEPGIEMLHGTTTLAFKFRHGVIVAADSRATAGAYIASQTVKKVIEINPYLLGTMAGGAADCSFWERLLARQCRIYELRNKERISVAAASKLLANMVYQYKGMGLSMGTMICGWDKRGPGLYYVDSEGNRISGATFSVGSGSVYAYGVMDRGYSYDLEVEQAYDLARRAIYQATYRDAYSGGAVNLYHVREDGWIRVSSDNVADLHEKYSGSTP

This assay deals with CT-L (β5) proteasomal sub-catalytic activity (Homo sapiens, UniProt P28074). The assay can be described thus: Cell-based proteasome activity assay. The note with it: Ki50 CT-L (β5), 24 h treatment.

`CC(C)C[C@H](NC(=O)CNC(=O)c1cc(Cl)ccc1Cl)B(O)O` [IXA, ixazomib]: the Ki by setting is: (ARD cells) 24.3 ± 4.76 nM; (MM.1R cells) 11.1 ± 2.72 nM; (U266 cells) 6.12 ± 1.46 nM.

As a reminder, the Ki is a dissociation constant, usually derived from enzyme kinetics or from competition with a known ligand.
